Test results as given in patent US20240293551A1, “USE OF ST-TYPE LIPID COMPOUNDS IN PREPARATION OF NUCLEIC ACID DELIVERY REAGENT AND RELATED PRODUCT” (INSTITUTE OF BASIC MEDICAL SCIENCES CHINESE ACADEMY OF …, priority 2021, published 2024).

Test system: PGY-sRNA-26
Assay: In vivo delivery study of lipid-nucleic acid mixture (oral gavage, RT-qPCR of PGY-sRNA-26 in tissues)
Design: species or system mouse
Conditions: C57BL/6 mice, 100 μg lipid: 10 nmol PGY-sRNA-26, 12 hours; for oral delivery of single-stranded sRNA nucleic acids into mouse intestinal tissue: intestine
Protocol: 10 nmol of small RNA (as shown in Table 2) was dissolved in 400 μl of DEPC-treated water in a glass tube, 10 μl of the corresponding lipid stock solution was added such that the lipid mass in the system was 100 μg. The mixture was mixed thoroughly, heated in a 90° C. water bath for 15 minutes, and then cooled naturally to obtain the lipid nucleic acid mixture of lipid and small RNA.
C57BL/6 male mice, approximately 6 weeks old, weighing 20-24 g, were obtained from Beijing Vital River Laboratory Animal Technology Co., Ltd. The mice were housed in the SPF-grade animal facility at the Animal Center of the Institute of Basic Medical Sciences, Chinese Academy of Medical Sciences. The mice were fasted for 12 hours before gavage administration.
The resultant lipid nucleic acid mixture was orally administered to each mouse at a dose of 100 μg lipid: 10 nmol single-stranded 3′-methylated small RNA PGY-sRNA-26.
• 1) Blank group (n=4): mice were administered with 500 μl saline by gavage, this group served as a blank control; • 2) Free uptake group (n=4): mice were directly administered with small RNA PGY-sRNA-26 solution (10 nmol/mouse, 500 μl) by gavage, this group served as a negative control; • 3) Lipid-treated group (n=4): mice were administered with 500 μl lipid nucleic acid mixture prepared in step 2 by gavage.
After 12 hours of gavage administration, 500 μl blood from the eyeball of each mouse was sampled, added to 1.5 ml Trizol Reagent LS (purchased from Invitrogen), thoroughly mixed for lysis. 3 ml of Trizol Reagent LSwas added to tissue samples and homogenized for complete lysis, wherein the sampled tissues include heart, liver, spleen, lung, kidney, stomach, intestine, brain, blood, femur. RNA was extracted from 1 ml of the blood or the tissue lysate following the steps below: • Centrifuge at 4° C., 12,000 rpm for 5 min, discard the precipitate, transfer Trizol to a new centrifuge tube; • Add chloroform at 200 μL chloroform/mL Trizol, shake well, stand at room temperature for 5 min; • Centrifuge at 4° C., 12,000 rpm for 15 min; • Take the upper aqueous phase to another centrifuge tube, add isopropanol at 0.4 mL isopropanol/mL Trizol, mix well, and stand at low temperature for 10-20 min; • Centrifuge at 4° C., 12,000 rpm for 15 min, discard the supernatant, RNA precipitated at the bottom of the tube; • Add 1 mL of 75% ethanol, gently shake the centrifuge tube, suspend the precipitate; • Centrifuge at 4° C., 12,000 rpm for 15 min, discard the supernatant, add 1 mL of 75% ethanol, gently shake the centrifuge tube, suspend the precipitate; • Centrifuge at 4° C., 12,000 rpm for 15 min, discard the supernatant, air-dry at room temperature, dissolve RNA samples in 50 μL RNase-free H2O, measure OD value to quantify RNA concentration. 3.3 Reverse Transcription of sRNA to cDNA:
The reverse transcription system is as follows: Template RNA (200 ng/μL) 10 μL, 10×RT Buffer 2.0 μL, 25×dNTP Mix (100 mM) 0.8 μL, U6 RT stem-loop primer (10 μM) 2.0 μL, PGY-sRNA-26 RT stem-loop primer (10 μM) 2.0 μL, MultiScribe™ Reverse Transcriptase (50 U/μL) 1.0 μL, RNAse Inhibitor (40 U/μL) 1.0 μL, nuclease-free H2O 1.2 μL. After transient centrifugation, the reverse transcription system was placed in a PCR machine with the following reaction conditions: (1) 25° C., 10 min; (2) 37° C., 120 min; (3) 85° C., 5 min; (4) 4° C., stop reaction. After the reaction, add 20 μL RNAse-free ddH2O, adjust the final volume to 40 μL. The stem-loop primers used in this reverse transcription process were synthesized by Beijing Tianyi Huiyuan Biotechnology Co., Ltd. (U6 was used as a standard reference gene to calculate its relative expression, because U6 RT primer was used as a reference gene in relative quantification of RT-qPCR reactions for small RNA): […]

C[C@]12CC[C@H](O)CC1=CC[C@@H]1[C@@H]2CC[C@]2(C)C(=O)CC[C@@H]12 [Lipid 561]
can effectively orally deliver: oral delivery of single-stranded sRNA nucleic acids into mouse heart tissue | oral delivery of single-stranded sRNA nucleic acids into mouse intestinal tissue | oral delivery of single-stranded sRNA nucleic acids into mouse kidney tissue | oral delivery of single-stranded sRNA nucleic acids into mouse liver tissue | oral delivery of single-stranded sRNA nucleic acids into mouse lung tissue | oral delivery of single-stranded sRNA nucleic acids into mouse spleen tissue | oral delivery of single-stranded sRNA nucleic acids into mouse stomach tissue

C[C@]12CC[C@H]3[C@@H](CCC4=CC(=O)CC[C@@]43C)[C@@H]1CC[C@@H]2O [Lipid 579]
can effectively orally deliver: oral delivery of single-stranded sRNA nucleic acids into mouse heart tissue | oral delivery of single-stranded sRNA nucleic acids into mouse intestinal tissue | oral delivery of single-stranded sRNA nucleic acids into mouse kidney tissue | oral delivery of single-stranded sRNA nucleic acids into mouse liver tissue | oral delivery of single-stranded sRNA nucleic acids into mouse lung tissue | oral delivery of single-stranded sRNA nucleic acids into mouse spleen tissue | oral delivery of single-stranded sRNA nucleic acids into mouse stomach tissue
